# ChEMBL document CHEMBL6115036, “Exploration of membrane-active cephalosporin derivatives as potent antibacterial agents against Staphylococcus aureus biofilms and persisters” (Eur J Med Chem, 2025)
# Key:
# [1] = test system: Staphylococcus aureus; test: Antimicrobial activity against Staphylococcus aureus incubated for 16 to 18 hrs by broth dilution assay; format: functional; conditions: time 16-18 hrs
# [2] = test system: Escherichia coli; test: Antimicrobial activity against Escherichia coli incubated for 16 to 18 hrs by broth dilution assay; format: functional; conditions: time 16-18 hrs
smiles,measurement,setting,value
CC[C@H](C)[C@H](NC(=O)CN)C(=O)NCC(=O)N[C@@H](C)C(=O)N[C@H](C(=O)N[C@@H](CC(C)C)C(=O)N[C@@H](CCCCN)C(=O)N[C@H](C(=O)N[C@@H](CC(C)C)C(=O)N[C@H](C(=O)N[C@H](C(=O)NCC(=O)N[C@@H](CC(C)C)C(=O)N1CCC[C@H]1C(=O)N[C@@H](C)C(=O)N[C@@H](CC(C)C)C(=O)N[C@H](C(=O)N[C@@H](CO)C(=O)N[C@@H](Cc1c[nH]c2ccccc12)C(=O)N[C@H](C(=O)N[C@@H](CCCCN)C(=O)N[C@@H](CCCNC(=N)N)C(=O)N[C@@H](CCCCN)C(=O)N[C@@H](CCCNC(=N)N)C(=O)N[C@@H](CCC(N)=O)C(=O)N[C@@H](CCC(N)=O)C(N)=O)[C@@H](C)CC)[C@@H](C)CC)[C@@H](C)O)[C@@H](C)O)C(C)C)C(C)C [MELITTIN],MIC,[1],4 µg/mL
same,MIC,[2],4 µg/mL
